# Yeast mating assay 2: variants of the scFv Ab-95

Source: Engelhart et al. 2022 (doi:10.1038/s41597-022-01779-4), MIT Lincoln Laboratory and A-Alpha Bio; data file from the FLAb repository.

The target is the same throughout: PDVDLGDISGINAS, from the HR2 region of SARS-CoV-2 spike.

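Phage display of a naive human antibody library on the peptide gave the parent. The library (AAYL52) carries one to three amino acid substitutions per variant, with no insertions or deletions. The scFvs were displayed on barcoded MATa yeast, the peptide on MATalpha yeast. Pairs that bind mate more often; barcode pairs of the diploids are counted by sequencing. The ratio of observed to expected reads was calibrated, replicate by replicate, on BCL2-family standards whose Kd was known from biolayer interferometry. Each pool was mated in three replicate cultures.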

The variants keep the heavy chain, the linker and the frameworks of Ab-95 (scFv order VH, three GGGGS repeats, VL).
VH: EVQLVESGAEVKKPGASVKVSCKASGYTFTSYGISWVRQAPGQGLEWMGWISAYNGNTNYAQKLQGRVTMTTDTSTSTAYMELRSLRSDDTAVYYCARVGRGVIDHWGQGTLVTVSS
VL: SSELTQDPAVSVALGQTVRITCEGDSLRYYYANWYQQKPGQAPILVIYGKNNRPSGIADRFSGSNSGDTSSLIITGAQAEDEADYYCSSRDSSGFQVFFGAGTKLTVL

The parent's light chain CDRs are EGDSLRYYYAN, GKNNRPS, SSRDSSGFQVF; each variant's own CDRs replace them letter for letter.
This list gathers variants with a substitution at L27 (VL, numbered from residue 1).
The read-out is the apparent dissociation constant on a log10 scale (nM): the lower, the stronger.
A mean of the replicates is given; it leaves out those without a signal.
An entry "not detected" has no value in the source: the pair was not observed among the diploids in any replicate. This suggests poor binding but is not conclusive.
Nonspecific signal, from three strains lacking the peptide, appeared in 28% of pairings of library AAYL52, centred on 3.91 (5% of these signals below 2.90); values are not corrected for it.

CDR-L1,CDR-L2,CDR-L3,"mean, log10 nM",detected
EGDSWRQYYQN,GKNNRPS,SSRDSSGFQVF,4.07,1 of 3
EGDSGRYYYAN,GKNNRPN,SSRDSSGFDVF,3.35,2 of 3
EGDSWRYYCAN,GKNNRPT,SSRDSSGFQVF,2.94,3 of 3
EGDSWRYHYAN,GKNNRPS,DSRDSSGFQVF,3.81,3 of 3
EGDSIRYYYAN,GKNNRPE,SSRGSSGFQVF,2.52,3 of 3
EGDSHRYYYQN,GKNNRPS,SSRDSSGYQVF,3.55,2 of 3
EGDSGPYYYAD,GKNNRPS,SSRDSSGFQVF,not detected,0 of 3
EGDSMYYYYAN,GKNNRPS,FSRDSSGFQVF,3.66,3 of 3
EGDSGRYYYAN,GKRNRPS,SNRDSSGFQVF,not detected,0 of 3
EGDSIRYYYAN,MKNNRPS,SSRDSSGFQKF,not detected,0 of 3
EGDSGQYYYAN,GKNNRPS,SSRDSVGFQVF,4.61,1 of 3
EGHSWRYYYAN,GKNNRPS,SSRDSSGFQVV,2.61,3 of 3
EGDSPRYYYAN,GKNNHPS,SSRDYSGFQVF,not detected,0 of 3
EGDWSRYYYAN,GRNNRPS,SSRDSSGFQVF,4.33,3 of 3
EGDSRRYYYAN,GKNNRPS,SSRFSSGFQVF,not detected,0 of 3
EGDSARYYYAN,GKNNRPS,YSRDGSGFQVF,2.86,2 of 3
EGDSYQYYYAN,GKNNRPS,SSRDSSGFPVF,3.87,3 of 3
EGDSTRYYYAN,KKNNRPS,SSRDSSGFKVF,2.52,2 of 3
EGDGNRMYYAN,GKNNRPS,SSRDSSGFQVF,3.19,3 of 3
EGSSMRYYYAN,GKNNRPS,SSRDSSGFQVL,4.12,2 of 3
EGDSKRYQYAN,GKNNIPS,SSRDSSGFQVF,3.37,3 of 3
EGDSHRYYYAN,GKNNRIS,SSKDSSGFQVF,3.99,1 of 3
EGDSSRYYYAN,GKNNRPS,SSRDSMGFEVF,4.72,1 of 3
EGDSARYIYAN,GKNNRPS,SHRDSSGFQVF,3.45,2 of 3
EMDSDRYYYAN,GKNNRPS,SSRDSSGFQVE,3.50,3 of 3
EGDSWRYYYAN,GKLNRPS,SSRDSSGDQVF,4.55,2 of 3
EGDSRRYYYAN,GKNNRPS,TSFDSSGFQVF,4.29,2 of 3
EGDSCRYYYAN,GKNNRPS,ISRASSGFQVF,not detected,0 of 3
EGDGFRYYYAN,GKNNRPS,SSRDSSGFQVT,4.27,3 of 3
EGDSRRYYYAN,GWNNRQS,SSRDSSGFQVF,2.92,1 of 3
EGDSCRYYYAN,FKNNEPS,SSRDSSGFQVF,not detected,0 of 3
EGDSHRYYYAN,GKNNRPS,SSRDSSGFDVF,4.29,2 of 3
EGDSSRYYYAN,GKNNRPS,SMRISSGFQVF,4.01,3 of 3
EGDSERYYYAN,GKNNRPS,EPRDSSGFQVF,not detected,0 of 3
EGDSHNYYYCN,GKNNRPS,SSRDSSGFQVF,3.49,2 of 3
EGDSRQYYYAN,GKANRPS,SSRDSSGFQVF,not detected,0 of 3
EGDSQRYYYAN,GKNNRDS,SERDSSGFQVF,4.59,2 of 3
EGMSVRYYYAN,GKNNRPS,KSRDSSGFQVF,not detected,0 of 3
EGDSYDYYYAN,GKNCRPS,SSRDSSGFQVF,3.53,2 of 3
EGDSGRYYYGN,GKNNRPS,SSRDSSGFQVF,2.11,3 of 3
KGDSKRYYYAN,GKNNRPS,SSRFSSGFQVF,3.22,3 of 3
EGDSMRYYYAN,GKNNRPN,SSRDSSGFQIF,2.30,3 of 3
EGLSQRYYYAN,GKNNRGS,SSRDSSGFQVF,4.44,1 of 3
EGDSERYYTAN,GKNNRPS,SSRDSFGFQVF,3.35,1 of 3
EGDSSRYPYAN,GKNNRPS,SSRYSSGFQVF,1.46,3 of 3
EGDSSRYYYAN,GKNNRPK,SSRDSSGFQVF,2.62,3 of 3
ERDSSRYYYAN,GKNNDPS,SSRDSSGFQVF,4.48,3 of 3
EGDSRRYYYAN,GKNNRPS,SSRDDSGFQVF,1.89,3 of 3
EGDSMRKYYAN,GKNNRPS,GSRDSSGFQVF,2.91,3 of 3
EGDSERCYYAN,GKRNRPS,SSRDSSGFQVF,4.38,1 of 3
TGDSWRYYYAN,GKNNRPS,SSRDSSGNQVF,3.15,3 of 3
EGDSPRYYYFN,GKGNRPS,SSRDSSGFQVF,2.39,3 of 3
ELDSHRYYYAN,GKNNRPS,SSRDSSGFQVF,2.77,3 of 3
EGDSFRYYYAN,GKNNRPS,SKRDSSGFQMF,4.13,2 of 3
RGDSWRYYCAN,GKNNRPS,SSRDSSGFQVF,3.19,3 of 3
EGCSARYYYAN,GKNNRPS,TSRDSSGFQVF,not detected,0 of 3
EGDSRRYMLAN,GKNNRPS,SSRDSSGFQVF,2.62,3 of 3
EGDSVAYYYAN,GKNNRPS,SIRDSSGFQVF,3.53,2 of 3
ESDSNRYYYAN,GKNNGPS,SSRDSSGFQVF,3.85,1 of 3
EGDSYRYYYAN,GKNNRPS,SSRASFGFQVF,4.39,2 of 3
EGDSGRYYYAK,GKENRPS,SSRDSSGFQVF,3.93,1 of 3
EGMSGRYYYAN,GTNNRPS,SSRDSSGFQVF,2.69,3 of 3
EGDSNRYYYAN,GRNNRPS,SSRDSSGFQVF,2.89,3 of 3
EGDSMRYYYAN,NKNNRPS,SSRDSSGFQVF,3.32,2 of 3
TVDSMRYYYAN,GKNNRPS,SSRDSSGFQVF,3.71,2 of 3
EGDSQRFYYAN,GKNNRPS,LSRDSSGFQVF,4.37,1 of 3
EGDSYRYAYAN,GKNNIPS,SSRDSSGFQVF,2.09,3 of 3
EDDSDRYYPAN,GKNNRPS,SSRDSSGFQVF,3.18,2 of 3
EGDSVRYYYAN,GQNNRPS,CSRDSSGFQVF,3.19,2 of 3

Excerpt, the first 8 entries:

| CDR-L1 | CDR-L2 | CDR-L3 | mean, log10 nM | detected |
|---|---|---|---|---|
| EGDSWRQYYQN | GKNNRPS | SSRDSSGFQVF | 4.07 | 1 of 3 |
| EGDSGRYYYAN | GKNNRPN | SSRDSSGFDVF | 3.35 | 2 of 3 |
| EGDSWRYYCAN | GKNNRPT | SSRDSSGFQVF | 2.94 | 3 of 3 |
| EGDSWRYHYAN | GKNNRPS | DSRDSSGFQVF | 3.81 | 3 of 3 |
| EGDSIRYYYAN | GKNNRPE | SSRGSSGFQVF | 2.52 | 3 of 3 |
| EGDSHRYYYQN | GKNNRPS | SSRDSSGYQVF | 3.55 | 2 of 3 |
| EGDSGPYYYAD | GKNNRPS | SSRDSSGFQVF | not detected | 0 of 3 |
| EGDSMYYYYAN | GKNNRPS | FSRDSSGFQVF | 3.66 | 3 of 3 |

Parent in this assay: reference entry 2.31, copy in this library 2.25.